Amino acid sequences for entries named in this document (tags omitted).
UniProt P04035, whole entry: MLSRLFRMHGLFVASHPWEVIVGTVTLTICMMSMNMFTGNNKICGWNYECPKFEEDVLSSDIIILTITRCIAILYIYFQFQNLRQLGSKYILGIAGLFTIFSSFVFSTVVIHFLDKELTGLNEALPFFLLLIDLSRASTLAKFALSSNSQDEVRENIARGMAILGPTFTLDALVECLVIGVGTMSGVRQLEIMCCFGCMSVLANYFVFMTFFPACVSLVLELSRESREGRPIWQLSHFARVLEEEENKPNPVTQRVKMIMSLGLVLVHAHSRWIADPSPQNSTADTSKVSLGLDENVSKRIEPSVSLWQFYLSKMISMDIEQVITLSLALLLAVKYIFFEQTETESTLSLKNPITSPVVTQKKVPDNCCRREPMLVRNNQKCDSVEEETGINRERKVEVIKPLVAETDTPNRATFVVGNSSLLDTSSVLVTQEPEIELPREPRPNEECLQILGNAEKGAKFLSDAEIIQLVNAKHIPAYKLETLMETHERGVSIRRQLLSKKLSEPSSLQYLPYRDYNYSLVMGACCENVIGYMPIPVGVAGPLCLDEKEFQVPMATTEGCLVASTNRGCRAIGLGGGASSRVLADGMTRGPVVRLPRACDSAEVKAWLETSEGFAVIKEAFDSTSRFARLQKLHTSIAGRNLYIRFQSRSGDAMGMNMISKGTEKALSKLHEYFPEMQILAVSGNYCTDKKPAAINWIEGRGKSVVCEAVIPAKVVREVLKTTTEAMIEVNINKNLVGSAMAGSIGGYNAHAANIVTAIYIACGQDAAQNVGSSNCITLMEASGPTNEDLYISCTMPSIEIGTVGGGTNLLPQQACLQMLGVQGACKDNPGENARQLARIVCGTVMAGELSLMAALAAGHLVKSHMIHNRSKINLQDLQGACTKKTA

In patent US20070185193A1, “Huvastatin and its preparation and formulation comprising the huvastatin” (HUAIBEI HUIKE PHARMACEUTICAL, CO. LTD., priority 2003, published 2007):

Key:
HMG-CoA reductase = HMG-CoA reductase (Homo sapiens, UniProt P04035); test: Inhibiting constant Ki of statins with HMG-CoA (reductase), conventional methods; assay type: biochemical; details: read-out: Ki (inhibiting constant with HMG-CoA); tested form: K salt
[1] = log D determined at pH 7.4; details: tested form: K salt
rats = test: Animal test: blood lipid level and cholesterol in rats; details: twice per day, 0.05 or 0.1 mg/dose/rat, blood samples after one week, tested form: K salt

Which Ki (HMG-CoA reductase) does the source give for `CCC(C)(C)C(=O)O[C@H]1C[C@@H](O)C=C2C=C[C@H](C)[C@H](CC[C@@H](O)C[C@@H](O)CC(=O)O)[C@H]21` here?
The Ki was 7.3 nM.

What about the log D [1] of the same compound?
Its log D is 0.42.

And the “blood lipid versus control group” value (rats)?
Its value is “lower than that of the control group”.

And the “lipid-lowering effect, comparison among Compounds 1-3” value (rats)?
The value was “best lipid-lowering effect”.
